Data on 3 molecules can be found in US11891655B2, “Probe for selectively characterizing enzymes involved in xenobiotic metabolism and method of making and using the same” (Battelle Memorial Institute, priority 2017, dated 2024).

Where two headings read alike, the source gives them in different places.

This test has as its system GSTs (G site) in mouse liver cytosol. Particulars: for EC50: read-out: effective concentration inhibiting GSH-ABP-G labeling of GSTs.

`N[C@@H](CCC(=O)N[C@@H](CS)C(=O)NCC(=O)O)C(=O)O` [GSH, glutathione]: the “inhibition of GSH-ABP-G labeling by competitor added in excess” value (SDS-PAGE and LC-MS, mouse liver lysate) is reported as “no significant inhibition”. For `CCCCCCSC[C@H](NC(=O)CC[C@H](N)C(=O)O)C(=O)NCC(=O)O` [S-hexylglutathione], the EC50 (to 10 μM probe, mouse liver cytosol, inhibitor pre-incubated 30 min) was 1770 nM. Consider `C=C(CC)C(=O)c1ccc(OCC(=O)O)c(Cl)c1Cl` [ethacrynic acid], for which the EC50 worked out at 440 nM.
